Test results published in patent US20240043514A1, “NOVEL METHOD FOR PRODUCING ANTIBODIES” (TSINGHUA UNIVERSITY, priority 2017, published 2024).

What was measured:
PBMCs [1] = test: In vitro immunization (IVI) of PBMCs, antigen-specific IgG/IgM production by ELISA; type: cell-based, human; details: amplified PBMCs, antigen TrkA, with CD40L, IL2, IL21, CpG ODN, culture 10-14 days
Procedure: (§1) PBMCs were washed and diluted with PIV culture medium. Cell density was adjusted to 1*10^^7 cells/ml, treateder with 0.25 mM LLME for about 20 min. Discarded supernatant, and re-suspended cell with PIV culture medium. Adjusted cell density to 9*10^^5 cells/ml. Transferred cells suspension into 96 well plate, and added 2 μg/ml antigen, and 10 ng/ml IL2, 50 ng/ml IL21, CD40L, ICOS, synthesized TLR7/8 agonist, or any desired factors or combination thereof respectively. Cultured the tissue for 7 days at 37° C., 5% CO2. Changed half of the medium and added factor cocktail on day 7. Cultured the cells for 7-21 days at 37° C., 5% CO2. Collected the supernatant on day 7, day 14, or day 21 for analysis of antibody production by ELISA, whereas the pellets are used for testing gene expression by PCR or RT-PCR. The collected cells were also tested in ELISpot assay for FACS analysis. […]
After day7 or day14 with addition of cytokines or antibody-enhancing composition and antigens, supernatants were harvested and added to antigen OVA-coated plates. After 2 hr incubation, a HRP-conjugated anti-human IgG or anti-human IgM was added, the amount of antigen-specific antibody was measured using TMB as substrate. […]
An exemplary cytokine, IL1β, was tested. […] After 7 or 14 days, supernatants were harvested, and IgG/IgM antibody production was measured by ELISA assay.

PBMCs [2] = test: PBMC proliferation, cell density counted by hemocytometer; type: cell-based, human
Procedure: FIG. 1 illustrates that IL2 stimulates PBMC proliferation. PBMCs were immunized in vitro with the antigen TrkA (2 μg/ml) in the presence of various stimulants as indicated for 14 days. Cell density was counted by Hemocytometer. Note that treatment with IL2 increased cell density by 15 folds. Concentration of the stimulants added: avasmibe, 10 μM/ml; CpG ODN, 2 μg/ml; IL21, 50 ng/ml; 112, 10 ng/ml; IL4, 10 ng/ml; BAFF, 50 ng/ml.
PBMC in vitro (PIV) culture medium: (RPMI1640:DMEM:Ham's F12=1:1:2) supplemented with 10% FBS. Fresh PBMC was harvested from several healthy donors (about 40 ml/time/person). PBMC was separated by density-gradient centrifugation as previously described in human monoclonal antibody book. Cell number was counted with a hemocytometer.
as §1, with “CO2.” for “CO2. Collected the supernatant on day 7, day 14, or day 21 for analysis of antibody production by ELISA, whereas the pellets are used for testing gene expression by PCR or RT-PCR. The collected cells were also tested in ELISpot assay for FACS analysis.”

| Substance | antibody level among all the stimulants (PBMCs [1]) | increase of cell density (PBMCs [2]; PBMCs immunized with TrkA 2 μg/ml, 14 days, IL2 10 ng/ml) | promotion of cell proliferation compared with other stimulants (PBMCs [2]; antigen TrkA with various factors, FIG. 1) |
| --- | --- | --- | --- |
| ICOSL: Human ICOS Ligand/B7-H2/ICOSLG (Histag) | the highest antibody level among all the stimulants |  |  |
| IL2: interleukin-2, cytokine; part of 'basic' medium at 10 ng/ml |  | 15 folds | the most potent stimulant that promotes cell proliferation |
